High-throughput results: PubChem BioAssay, several laboratories
Yeast UUG start = yeast start codon fidelity modulation; activity score, % at 18.7 µM; actives 0.13% (n = 350,000); S. cerevisiae UUG-firefly luciferase reporter, luminescence/redox ratio; AID 602363;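 active means replicate mean at a twofold rise or more, about +100% in these data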;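 further: firefly luciferase made from a UUG start codon reports start codon fidelity; reporter light over untreated wells divided by growth signal over untreated wells; some hits fall short of that in this replicate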
HDAC3 inh = HDAC3 deacetylase inhibitors, primary screen, biochemical, fluorescence, cell-free homogeneous; Histone deacetylase 3 (Homo sapiens), O15379; recombinant HDAC3, fluorogenic peptide/trypsin coupled; inhibition, % at 8.3 µM; actives 0.15% (n = 320,000); in the data active = inhibition above about 26%, passing the limit was not always enough
MC4R barr agon = MC4R agonists recruiting beta-arrestin, primary screen, cell-based, luminescence, agonist arm of biased-ligand search; actives 0.98% (n = 360,000); U2OS MC4R beta-arrestin complementation; percent of melanotan II response, DMSO zero; activation, % at 8.9 µM;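 active = activation above a per-plate cutoff, the mean activation of sample wells on that plate plus 3 SD, cut at about 8% in these data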
NALP1 yeast inh = NALP1 inflammasome inhibitors in reconstituted yeast, colorimetric, S. cerevisiae, triplicate retest; S. cerevisiae NALP1/ASC/caspase-1 growth, X-gal OD620, 72 h; inhibition, % at 10 µM; actives 0.61% (n = 280,000); in the data active = inhibition mostly above about 24%, no sharp cut-off; inactive = mostly below about 32%
MC4R antagonist = MC4R antagonists of cAMP signaling, primary screen, cell-based, TR-FRET, antagonist arm of biased-ligand search | inhibition, % at 6.5 µM | MC4R-expressing cells, MTII-stimulated cAMP, LANCE TR-FRET | actives 0.48% (n = 360,000);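 active = inhibition above its plate's cutoff, the mean of tested wells on that plate plus 3 SD, cut at about 29% in these data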;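 note: 0% = Melanotan II alone and 100% = Melanotan II plus saturating MCL0020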
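Material – human MC4R-expressing U2OS cells · Repeats – no replicates · Detection – TR-FRET with Eu-cAMP and labeled anti-cAMP, 671 nm · Times – compound 30 min, challenge 1 h, detection 1 h · Compound – single nominal compound dose of 6.5 µM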
ALR inh = human ALR oxidase inhibition via reduced H2O2; P55789; purified ALR, DTT oxidation, H2O2 HRP-luminol luminescence; inhibition, % (test concentration not listed); actives 3.8% (n = 290,000); AID 485317;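 active means mean and each replicate at 75% or more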;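 further: stock transfer was 7.5 nL into about 7.5 µL; 0% = neutral wells and 100% = wells with inactivated enzyme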
MC4R barr ag = MC4R beta-arrestin agonists, retest, confirmation, cell-based, luminescence, U2OS; activation, % at 8.9 µM; actives 31% (n = 2,400); AID 602192, 2012; shares compounds with MC4R barr agon; U2OS MC4R beta-arrestin recruitment; scaled DMSO 0%, Melanotan II 100%;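 active = mean activation across replicates above the hit cutoff set in the earlier primary screen, cut at about 8% in these data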
MOR-DOR barr ag = agonists of MOR-DOR heterodimerization, counter-screen for MC4R biased agonist project, cell-based, luminescence; shares compounds with MC4R barr agon; activation, % at 9.2 µM; U2OS PathHunter beta-arrestin, beta-gal luminescence; percent of deltorphin B response, DMSO zero; actives 5.8% (n = 2,400); AID 602194, 2012;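 active = mean activation across replicates exceeds the hit threshold derived in the earlier primary screen, cut at about 18% in these data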;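 note: 100% = deltorphin B at 0.9 µM final and 0% = DMSO alone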
An asterisk follows results filed as active; · = no result given. Hits are enriched below; roughly 4.2% of the tested compounds scored in any of these assays.

SMILES	Yeast UUG start	HDAC3 inh	MC4R barr agon	NALP1 yeast inh	MC4R antagonist	ALR inh	MC4R barr ag	MOR-DOR barr ag
Cc1ccc(S(=O)(=O)N[C@H]2CC[C@H](CC(=O)NCCc3ccncc3)O[C@H]2CO)cc1	14	·	·	·	·	·	·	·
CSc1nc2nccc(-c3ccc(-c4ccccc4)cc3)n2n1	-11	-5	11*	-15	20	·	1	4
CSc1nc2nccc(-c3ccc(Oc4ccccc4)cc3)n2n1	-6	0	2	6	13	·	·	·
N#Cc1ccc(-c2cccs2)nc1SCc1cccnc1	-6	-6	-2	25	-22	5	·	·
N#Cc1c(C(F)(F)F)cc(-c2cccs2)nc1SCc1ccc(Cl)nc1	-18	-4	16*	-17	9	5	6	3
N#Cc1c(C(F)(F)F)cc(-c2cccs2)nc1SCc1cccnc1	-22	-5	12*	-1	4	-4	1	1
C[C@@H]1CN([C@H](C)CO)C(=O)c2cc(C#CC3CCCCC3)cnc2O[C@H]1CN(C)C(=O)NC1CCCC1	28	·	·	·	·	·	·	·
COc1ccccc1CN1C(=O)c2ccncc2C1=O	11	·	-2	9	2	·	·	·
COc1ccc(CCN2C(=O)c3ccncc3C2=O)cc1OC	0	-5	14*	-2	7	-4	1	3
Cc1ccc(CN(C)C[C@@H]2OCc3cnnn3CCCC(=O)N([C@H](C)CO)C[C@@H]2C)cc1	-16	·	·	·	·	·	·	·
COC(=O)[C@@]1(Cc2ccccc2)N=C(c2ccc(OCCCO)cc2)O[C@H]1c1ccccc1	7	·	·	·	·	·	·	·
CCOCCCN(Cc1ccco1)C(=O)c1cc2c(=O)[nH]c3ccc(C)cc3c2s1	-2	-11	11*	-30	3	45	18*	8
COc1ccc(NC(=O)Cn2cnc3c(cnn3-c3ccc(C)c(C)c3)c2=O)c(OC)c1	-15	-6	12*	-26	0	-3	15*	7
CO[C@H]1CN(C)C(=O)c2ccc(NC(C)=O)cc2OC[C@@H](C)N(C(=O)CC2CC2)C[C@H]1C	-14	·	·	·	·	·	·	·
Cc1ccc(OCc2ccc(C(=O)Nc3nccs3)o2)cc1	-23	6	15*	-8	-5	-25	2	3
O=C(Nc1nccs1)c1ccc(COc2ccccc2)o1	0	1	1	2	1	·	·	·
Cc1c([N+](=O)[O-])cc(C(=O)Nc2ccc(NC(=O)c3ccco3)cc2)cc1[N+](=O)[O-]	-29	-1	10*	15	-1	0	-5	8
Cc1ccc(OCC(=O)Nc2ccc(NC(=O)c3ccco3)cc2)c(C)c1	-14	-1	18*	29	8	0	1	6
COc1cc(C(=O)NC(=S)Nc2ccc(NC(=O)c3ccco3)cc2)cc(OC)c1OC	·	0	11*	30	-2	·	0	4
Cc1ccc(OCC(=O)Nc2cccc(-c3nnc(-c4ccccc4)o3)c2)c(C)c1	24	-1	35*	15	8	2	8	4

Marked active in MC4R barr ag (from the list above):
mol	Yeast UUG start	HDAC3 inh	MC4R barr agon	NALP1 yeast inh	MC4R antagonist	ALR inh	MC4R barr ag
CCOCCCN(Cc1ccco1)C(=O)c1cc2c(=O)[nH]c3ccc(C)cc3c2s1	-2	-11	11*	-30	3	45	18*
COc1ccc(NC(=O)Cn2cnc3c(cnn3-c3ccc(C)c(C)c3)c2=O)c(OC)c1	-15	-6	12*	-26	0	-3	15*

Ordered by heavy-atom count (ascending): 3 of the compounds above.
SMILES	Yeast UUG start	HDAC3 inh	MC4R barr agon	NALP1 yeast inh	MC4R antagonist	ALR inh	MC4R barr ag	MOR-DOR barr ag
COc1ccccc1CN1C(=O)c2ccncc2C1=O	11	·	-2	9	2	·	·	·
CSc1nc2nccc(-c3ccc(-c4ccccc4)cc3)n2n1	-11	-5	11*	-15	20	·	1	4
Cc1ccc(OCC(=O)Nc2cccc(-c3nnc(-c4ccccc4)o3)c2)c(C)c1	24	-1	35*	15	8	2	8	4

Additional compounds follow:
SMILES	Yeast UUG start	HDAC3 inh	MC4R barr agon	NALP1 yeast inh	MC4R antagonist	ALR inh	MC4R barr ag	MOR-DOR barr ag
COc1ccc(CC(=O)Nc2cccc(-c3nnc(-c4ccc(C)cc4)o3)c2)cc1OC	5	-1	2	-4	6	0	·	·
CN1C(=O)CS(=O)(=O)C1c1ccccc1 (stereo not drawn)	-18	·	·	·	·	·	·	·
Cc1cc(C)c(OCC(=O)Nc2ccc(NC(=O)c3ccco3)cc2)c([N+](=O)[O-])c1	-17	-1	13*	22	4	12	1	3
COc1ccc(N2CC(O)=C(c3nc(-c4ccc(Br)cc4)cs3)C2=N)cc1	·	-1	4	3	7	·	·	·
COc1ccc(N2CC(O)=C(c3nc(-c4ccccc4)cs3)C2=N)cc1	-22	·	19*	·	8	·	8	4
Clc1ccc(CNCc2cccs2)c(Cl)c1	·	8	11*	23	14	-6	2	4
Clc1ccc(CNCc2cccs2)cc1Cl	-25	4	0	43	-1	-4	·	·
C[C@H]1CN([C@@H](C)CO)S(=O)(=O)c2ccc(C#CC(C)(C)O)cc2O[C@@H]1CN(C)C(=O)CN(C)C	5	·	·	·	·	·	·	·
C[C@H](O)C#Cc1cnc2c(c1)C(=O)N([C@H](C)CO)C[C@H](C)[C@@H](CN(C)C(=O)c1ccccc1)O2	9	·	·	·	·	·	·	·
CCc1cc2cccc(C)c2nc1SCC(=O)c1ccc(NC(C)=O)cc1	-8	0	10*	32	-6	1	2	3
CCc1cc2cccc(C)c2nc1SCC(=O)Nc1cc(C)on1	·	-1	0	13	-2	3	·	·
C[C@H]1CN([C@@H](C)CO)C(=O)Cc2cc(NC(=O)C3CC3)ccc2O[C@@H]1CN(C)Cc1ccncc1	-19	·	·	·	·	·	·	·
Cc1ccnc(Nc2nc(-c3ccc(O)cc3O)cs2)c1	-5	14	18*	-22	8	99*	13*	8
COc1ccc(-c2csc(Nc3cc(C)ccn3)n2)cc1C	-24	10	0	26	1	-1	·	·
CN(Cc1ccccc1)C(=S)NC(=O)c1ccc(-c2ccccc2)cc1	-33	-7	28*	4	-4	2	-5	2
CC(=O)Nc1ccc(NC(=S)NC(=O)c2ccc(-c3ccccc3)cc2)cc1	-15	-20	36*	·	6	-8	4	6
C[C@H]1CN([C@@H](C)CO)C(=O)c2cc(/C=C/c3ccccc3)cnc2O[C@H]1CN(C)C(=O)Nc1ccc(C(F)(F)F)cc1	6	·	·	·	·	·	·	·
Cc1ccc(NC(=O)c2cc(S(=O)(=O)Nc3ccc(C)cc3)cs2)cc1	-10	2	9.6*	·	-3	·	13*	17
CC(=O)N[C@H]1CC[C@@H](CC(=O)NCc2ccc(Cl)cc2)O[C@H]1CO	-8	·	·	·	·	·	·	·
O=C(CCN1C(=O)c2ccccc2C1=O)Nc1ccc(-c2cn3ccsc3n2)cc1	-5	-4	13*	14	9	-21	-1	4
